From patent US20020025510A1, “Screening methods based on superactivated alpha V beta 3 integrin” (priority 2000, published 2002)

Target: integrin αvβ3 with the wild type β3 subunit, on β3-MCF7 cells (human) (UniProt P06756)
Assay: cell-based or functional assay

apparent molecular mass of the β3 subunit precipitated from cells, SDS-PAGE: 5 kDa
Substance: human MT1-MMP, on transfected MCF7 cells (MT-MCF7 and β3/MT-MCF7) (from UniProt P50281 112-582) (enzyme)
